Series [1] in a line: pH modification of the mixture. Type of series: physicochemical. Particulars: 0.5% of the 2.5% sucrose stearate solution added to a solution at pH 9.4.
For series [2] the following is noted: 5% sunflower oil in 2.5% solution; 45° C. 24 h and centrifugation 20 min 4000 rpm.
The conditions of series [3]: 3% in water or sunflower oil; centrifuged 5 min at 4000 rpm.

In the case of sucrose stearate, the pH in series [1] is 6.33. For the same substance, the “number of phases of the mixture” value in series [2] is “only one phase”. Further, in series [3], the miscibility result is “miscible with water and also with oil”.

Values taken from patent US20200236933A1, “USE OF A NON-IONIC SURFACTANT WHICH IS A POLYOL DERIVATIVE AS A PLANT GROWTH STIMULATING AGENT OR AS AN ADJUVANT” (priority 2017, published 2020).
